Data published in PMC1802080.

Target: APP-BP1 (amyloid precursor protein binding protein-1), endogenous in rat brain (rat (endogenous in adult Sprague Dawley rat brain)) (UniProt Q9Z1A5)
Test: co-IP; rat brain membrane fraction proteins extracted in 20 mM Tris pH 8, 1 mM MgCl2, NaCl, 2% CHAPS; BP339 (anti-APP-BP1) prebound to protein G beads; blot with anti-PS1 (AB5308), anti-PS1-NTF or anti-nicastrin; controls beads alone or BP339 pre-immune antibody

percent of PS1 associated with APP-BP1: 1%
Substance: Presenilin-1 (PS1), endogenous in rat brain, as precipitated or detected by the anti-PS1 loop antibody AB5308 (from UniProt P97887 1-468) (natural protein)
